Laboratory results taken from patent US8575157B2, “Cyclic inhibitors of 11beta-hydroxysteroid dehydrogenase 1” (Vitae Pharmaceuticals, Inc., priority 2010, dated 2013).
pIC50: −log10 of the molar value.

Protein sequences, listed by entry. Tags and fused reporters are not part of them.
UniProt P11712, whole entry: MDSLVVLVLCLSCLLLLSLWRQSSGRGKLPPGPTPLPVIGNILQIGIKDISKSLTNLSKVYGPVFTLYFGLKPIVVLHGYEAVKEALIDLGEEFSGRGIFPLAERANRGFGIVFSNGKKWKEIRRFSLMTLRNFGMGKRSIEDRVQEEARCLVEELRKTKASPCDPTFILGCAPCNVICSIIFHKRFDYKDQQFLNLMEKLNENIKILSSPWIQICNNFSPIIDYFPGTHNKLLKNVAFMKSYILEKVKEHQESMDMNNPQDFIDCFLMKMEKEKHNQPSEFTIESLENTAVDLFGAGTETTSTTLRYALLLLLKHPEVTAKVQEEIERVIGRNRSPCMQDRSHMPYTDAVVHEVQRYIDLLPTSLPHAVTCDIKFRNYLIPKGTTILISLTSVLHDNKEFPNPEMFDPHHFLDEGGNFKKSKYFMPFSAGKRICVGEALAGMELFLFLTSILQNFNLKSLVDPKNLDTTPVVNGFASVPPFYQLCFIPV

Tests used:
[1] = molecular target: human recombinant cytochrome P450 2C9 (Homo sapiens (Human), UniProt P11712)
[2] = molecular target: human CYP2C9 (Homo sapiens (Human), UniProt P11712); conditions: read-out: Biological Test Example 9 CYP2C9 IC50; Invitrogen kit, OOMR fluorogenic substrate

pIC50 [2]	Structure (SMILES)	pIC50 [1]
–	CC(C)n1cc(-c2ccc([C@H](C)N3CC[C@](CC(C)(C)O)(c4ccccc4)OC3=O)cc2)ccc1=O [Example 59, (S)-6-(2-hydroxy-2-methylpropyl)-3-((S)-1-(4-(1-isopropyl-6-oxo-1,6-dihydropyridin-3-yl)phenyl)ethyl)-6-phenyl-1,3-oxazinan-2-one]	< 4.30
5.43	C[C@@H](c1ccc(-c2ccn(C(F)F)c(=O)c2)cc1)N1CC[C@](CC(C)(C)O)(c2ccccc2)OC1=O	5.29
–	C[C@@H](c1ccc(-c2ccc(=O)n(C)c2)cc1)N1CC[C@](CCCO)(c2ccccc2)OC1=O [Example 30, (R)-6-(3-hydroxypropyl)-3-((S)-1-(4-(1-methyl-6-oxo-1,6-dihydropyridin-3-yl)phenyl)ethyl)-6-phenyl-1,3-oxazinan-2-one]	< 4.30
